Legend:
CRF2R = target: T1, CRF2R (Homo sapiens, UniProt Q13324); experiment: CRF2R agonist activation (EC50 / Emax), called comparative CRF binding; type: cell-based; settings: for Emax: read-out: CRF2R Emax
T1 sequence (Q13324 1-411): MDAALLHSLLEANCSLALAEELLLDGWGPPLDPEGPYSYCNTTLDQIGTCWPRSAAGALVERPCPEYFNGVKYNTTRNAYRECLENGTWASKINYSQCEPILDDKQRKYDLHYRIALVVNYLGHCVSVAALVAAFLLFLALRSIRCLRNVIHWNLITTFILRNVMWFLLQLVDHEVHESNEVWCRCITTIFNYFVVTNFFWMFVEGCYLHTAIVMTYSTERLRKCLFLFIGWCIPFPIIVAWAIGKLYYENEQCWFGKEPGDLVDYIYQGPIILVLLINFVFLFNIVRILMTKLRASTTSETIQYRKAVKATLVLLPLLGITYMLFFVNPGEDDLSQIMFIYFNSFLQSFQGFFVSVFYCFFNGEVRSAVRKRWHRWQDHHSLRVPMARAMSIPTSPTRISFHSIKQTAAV
Outline: (§1)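 Peptides are tested on cells bearing CRF1R or CRF2R, full length or as ligand-binding-domain constructs coupled to reporters or G proteins. Activation is scored by cAMP rise, measured in lysates or by CRE-reporter output, against vehicle control.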

CRF1R = target: T2, CRF1R (Homo sapiens, UniProt P34998); experiment: CRF1R agonist activation (EC50 / Emax), called comparative CRF binding; type: cell-based; settings: for Emax: read-out: CRF1R Emax
T2 sequence (P34998 24-415): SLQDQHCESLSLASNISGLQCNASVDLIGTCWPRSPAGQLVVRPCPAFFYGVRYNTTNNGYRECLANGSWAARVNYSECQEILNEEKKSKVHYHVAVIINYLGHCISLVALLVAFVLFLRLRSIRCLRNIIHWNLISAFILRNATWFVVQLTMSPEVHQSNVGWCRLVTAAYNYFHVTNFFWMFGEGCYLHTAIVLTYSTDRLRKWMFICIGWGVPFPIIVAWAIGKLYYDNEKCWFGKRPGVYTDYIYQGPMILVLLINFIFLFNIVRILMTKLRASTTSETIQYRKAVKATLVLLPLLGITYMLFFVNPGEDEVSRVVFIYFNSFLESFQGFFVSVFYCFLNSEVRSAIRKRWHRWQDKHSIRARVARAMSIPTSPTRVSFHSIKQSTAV
Outline: as §1

Compound	Emax (CRF2R) [%]	Emax (CRF1R) [%]	EC50 (CRF2R) [nM]	EC50 (CRF1R; CRF1R EC50) [nM]
CC[C@H](C)[C@H](NC(=O)[C@@H](NC(=O)[C@H](CC(=O)O)NC(=O)[C@H](CC(C)C)NC(=O)[C@H](CC(C)C)NC(=O)[C@H](CC(C)C)NC(=O)[C@H](CCCNC(=N)N)NC(=O)[C@H](CC(N)=O)NC(=O)[C@H](CC(N)=O)NC(=O)[C@H](C)NC(=O)[C@H](C)NC(=O)[C@H](CCC(N)=O)NC(=O)[C@H](CCC(N)=O)NC(=O)[C@H](CCCCN)NC(=O)[C@H](CCC(=O)O)NC(=O)[C@H](CCCCN)NC(=O)[C@H](CCC(=O)O)NC(=O)[C@H](CCC(N)=O)NC(=O)[C@H](CCCCN)NC(=O)[C@H](CCC(=O)O)NC(=O)[C@@H](NC(=O)[C@H](CCC(=O)O)NC(=O)[C@@H](NC(=O)[C@@H](NC(=O)[C@H](CCCCN)NC(=O)[C@H](CCCNC(=N)N)NC(=O)[C@H](CC(C)C)NC(=O)[C@H](CC(C)C)NC(=O)[C@H](Cc1c[nH]c2ccccc12)NC(=O)[C@@H](NC(=O)[C@@H]1CCCN1C(=O)[C@H](CC(C)C)NC(=O)[C@H](CC(=O)O)NC(=O)[C@@H](NC(=O)[C@H](CO)NC(=O)[C@@H](NC(=O)[C@@H]1CCCN1C(=O)[C@@H]1CCCN1C(=O)CNC(=O)[C@@H]1CCC(=O)N1)[C@@H](C)CC)[C@@H](C)CC)[C@@H](C)O)C(C)C)[C@@H](C)CC)[C@@H](C)CC)[C@@H](C)O)C(N)=O [compound 284]	100	27.7	–	–
CC[C@H](C)[C@H](NC(=O)[C@@H](NC(=O)[C@H](CC(=O)O)NC(=O)[C@H](CC(C)C)NC(=O)[C@H](CC(C)C)NC(=O)[C@H](CC(C)C)NC(=O)[C@H](CCCNC(=N)N)NC(=O)[C@H](CC(N)=O)NC(=O)[C@H](CC(N)=O)NC(=O)[C@H](C)NC(=O)[C@H](C)NC(=O)[C@H](CCC(N)=O)NC(=O)[C@H](CCC(N)=O)NC(=O)[C@H](CCCCN)NC(=O)[C@H](CCC(=O)O)NC(=O)[C@H](CCCCN)NC(=O)[C@H](CCC(=O)O)NC(=O)[C@H](CCC(N)=O)NC(=O)[C@H](CCCCN)NC(=O)[C@H](CCC(=O)O)NC(=O)[C@@H](NC(=O)[C@H](CCC(=O)O)NC(=O)[C@@H](NC(=O)[C@H](CCSC)NC(=O)[C@H](CCCCN)NC(=O)[C@H](CCCNC(=N)N)NC(=O)[C@H](CC(C)C)NC(=O)[C@H](CC(C)C)NC(=O)CNC(=O)[C@@H](NC(=O)[C@@H]1CCCN1C(=O)[C@@H](NC(=O)[C@H](CC(=O)O)NC(=O)[C@@H](NC(=O)[C@H](CO)NC(=O)[C@@H](NC(=O)[C@@H]1CCCN1C(=O)[C@@H]1CCCN1C(=O)CNC(=O)[C@@H]1CCC(=O)N1)[C@@H](C)CC)[C@@H](C)CC)C(C)C)[C@@H](C)CC)[C@@H](C)CC)[C@@H](C)CC)[C@@H](C)O)C(N)=O [compound 254]	36	6	–	–
CC[C@H](C)[C@H](NC(=O)[C@@H](NC(=O)[C@H](CC(=O)O)NC(=O)[C@H](CC(C)C)NC(=O)[C@H](CC(C)C)NC(=O)[C@H](CC(C)C)NC(=O)[C@H](CCCNC(=N)N)NC(=O)[C@H](CC(N)=O)NC(=O)[C@H](CC(N)=O)NC(=O)[C@H](C)NC(=O)[C@H](C)NC(=O)[C@H](CCC(N)=O)NC(=O)[C@H](CCC(N)=O)NC(=O)[C@H](CCCCN)NC(=O)[C@H](CCC(=O)O)NC(=O)[C@H](CCCCN)NC(=O)[C@H](CCC(=O)O)NC(=O)[C@H](CCC(N)=O)NC(=O)[C@H](CCCCN)NC(=O)[C@H](CCC(=O)O)NC(=O)[C@@H](NC(=O)[C@H](CCC(=O)O)NC(=O)[C@@H](NC(=O)[C@H](CCSC)NC(=O)[C@H](CCCCN)NC(=O)[C@H](CCCNC(=N)N)NC(=O)[C@H](CC(C)C)NC(=O)[C@H](CC(C)C)NC(=O)[C@H](Cc1ccc(O)cc1)NC(=O)[C@H](Cc1ccc(O)cc1)NC(=O)[C@@H]1CCCN1C(=O)[C@H](CC(C)C)NC(=O)[C@H](CC(=O)O)NC(=O)[C@@H](NC(=O)[C@H](CO)NC(=O)[C@@H](NC(=O)[C@@H]1CCCN1C(=O)[C@@H]1CCCN1C(=O)CNC(=O)[C@@H]1CCC(=O)N1)[C@@H](C)CC)[C@@H](C)CC)[C@@H](C)CC)[C@@H](C)CC)[C@@H](C)O)C(N)=O [compound 40]	93	99	6.95	102
CC[C@H](C)[C@H](NC(=O)[C@H](CCCCN)NC(=O)[C@H](C)NC(=O)[C@H](CC(C)C)NC(=O)[C@H](CC(C)C)NC(=O)[C@H](CCCCN)NC(=O)[C@H](C)NC(=O)[C@H](CC(N)=O)NC(=O)[C@H](CC(N)=O)NC(=O)[C@H](C)NC(=O)[C@H](C)NC(=O)[C@H](CCC(N)=O)NC(=O)[C@H](CCC(N)=O)NC(=O)[C@H](CCCCN)NC(=O)[C@H](CCC(=O)O)NC(=O)[C@H](CCCCN)NC(=O)[C@H](CCC(=O)O)NC(=O)[C@H](CCC(N)=O)NC(=O)[C@H](CCCCN)NC(=O)[C@H](CCC(=O)O)NC(=O)[C@@H](NC(=O)[C@H](CCC(=O)O)NC(=O)[C@@H](NC(=O)[C@@H](NC(=O)[C@H](CCCCN)NC(=O)[C@H](CCCNC(=N)N)NC(=O)[C@H](CC(C)C)NC(=O)[C@H](CC(C)C)NC(=O)[C@H](CCC(N)=O)NC(=O)[C@H](Cc1ccccc1)NC(=O)[C@@H]1CCCN1C(=O)[C@H](CC(C)C)NC(=O)[C@H](CC(=O)O)NC(=O)[C@@H](NC(=O)[C@H](CO)NC(=O)[C@@H](NC(=O)[C@@H]1CCCN1C(=O)[C@@H]1CCCN1C(=O)CNC(=O)[C@@H]1CCC(=O)N1)[C@@H](C)CC)[C@@H](C)CC)C(C)C)[C@@H](C)CC)[C@@H](C)CC)C(N)=O [compound 274]	100	80.9	–	–
CC[C@H](C)[C@H](NC(=O)[C@@H](NC(=O)[C@H](CC(=O)O)NC(=O)[C@H](CC(C)C)NC(=O)[C@H](CC(C)C)NC(=O)[C@H](CC(C)C)NC(=O)[C@H](CCCNC(=N)N)NC(=O)[C@H](CC(N)=O)NC(=O)[C@H](CC(N)=O)NC(=O)[C@H](C)NC(=O)[C@H](C)NC(=O)[C@H](CCC(N)=O)NC(=O)[C@H](CCC(N)=O)NC(=O)[C@H](CCCCN)NC(=O)[C@H](CCC(=O)O)NC(=O)[C@H](CCCCN)NC(=O)[C@H](CCC(=O)O)NC(=O)[C@H](CCC(N)=O)NC(=O)[C@H](CCCCN)NC(=O)[C@H](CCC(=O)O)NC(=O)[C@@H](NC(=O)[C@H](CCC(=O)O)NC(=O)[C@@H](NC(=O)[C@H](CCSC)NC(=O)[C@H](CCCCN)NC(=O)[C@H](CCCNC(=N)N)NC(=O)[C@H](CC(C)C)NC(=O)[C@H](CC(C)C)NC(=O)[C@H](Cc1c[nH]cn1)NC(=O)[C@H](Cc1ccc(O)cc1)NC(=O)[C@@H]1CCCN1C(=O)[C@H](CC(C)C)NC(=O)[C@H](CC(=O)O)NC(=O)[C@@H](NC(=O)[C@H](CO)NC(=O)[C@@H](NC(=O)[C@@H]1CCCN1C(=O)[C@@H]1CCCN1C(=O)CNC(=O)[C@@H]1CCC(=O)N1)[C@@H](C)CC)[C@@H](C)CC)[C@@H](C)CC)[C@@H](C)CC)[C@@H](C)O)C(N)=O [compound 208]	88	81	–	–
CC[C@H](C)[C@H](NC(=O)[C@@H](NC(=O)[C@H](CC(=O)O)NC(=O)[C@H](CC(C)C)NC(=O)[C@H](CC(C)C)NC(=O)[C@H](CC(C)C)NC(=O)[C@H](CCCNC(=N)N)NC(=O)[C@H](CC(N)=O)NC(=O)[C@H](CC(N)=O)NC(=O)[C@@H](NC(=O)[C@H](C)NC(=O)[C@H](CCC(N)=O)NC(=O)[C@H](CCC(N)=O)NC(=O)[C@H](CCCCN)NC(=O)[C@H](CCC(=O)O)NC(=O)[C@H](CCCCN)NC(=O)[C@H](CCC(=O)O)NC(=O)[C@H](CCC(N)=O)NC(=O)[C@H](CCCCN)NC(=O)[C@H](CCC(=O)O)NC(=O)[C@@H](NC(=O)[C@H](CCC(=O)O)NC(=O)[C@@H](NC(=O)[C@H](CCSC)NC(=O)[C@H](CCCCN)NC(=O)[C@H](CCCNC(=N)N)NC(=O)[C@H](CC(C)C)NC(=O)[C@H](CC(C)C)NC(=O)[C@H](CCC(N)=O)NC(=O)[C@H](Cc1ccccc1)NC(=O)[C@@H]1CCCN1C(=O)[C@H](CC(C)C)NC(=O)[C@H](CC(=O)O)NC(=O)[C@@H](NC(=O)[C@H](CO)NC(=O)[C@@H](NC(=O)[C@@H]1CCCN1C(=O)[C@@H]1CCCN1C(=O)CNC(=O)[C@@H]1CCC(=O)N1)[C@@H](C)CC)[C@@H](C)CC)[C@@H](C)CC)[C@@H](C)CC)[C@@H](C)O)[C@@H](C)O)C(N)=O [compound 14]	90	92	–	–
